{"source": "patent US8465973B2", "about": "“Topical compositions containing phosphorylated polyphenols” (Estee Lauder Coordination Center N.V., priority 2004, dated 2013)", "tested_on": "extractable fraction of human SC D-squame tape strippings (acid phosphatase present on the skin)", "test": "Dephosphorylation of resveratrol^Pi by extractable fraction of stratum corneum D-squame tape strippings", "settings": "resveratrol^Pi 0.22 mg/ml or 0.47 mM, FIG. 3", "protocol": "D-squame tape strippings were collected on the inner lower arm of one panelist. […] The extractable fraction was transferred to another vial and mixed with resveratrol^Pi stock-solution. The concentration of resveratrol^Pi during the incubation was 0.22 mg/ml or 0.47 mM. At various incubation time points a 25 μl aliquot of the incubation mixture was diluted in 25 μl 10 mM o-phosphoric acid and 50 μl of MeOH and injected onto the HPLC system.", "data": [{"substance": "resveratrol diphosphate", "values": [{"measurement": "correlation (r) of amount with incubation time", "setting": "N=15", "value": "−0.27"}, {"measurement": "conversion on incubation with extractable fraction of SC D-squame tape strippings (HPLC)", "setting": "pH 5.6", "value": "did not change significantly as a function of time"}]}]}
